Measurements reported in PubChem BioAssay AID493083 (Broad Institute, 2011).
Some of the results follow. Measured potencies and affinities stand elsewhere. The source made the active and inactive calls.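 How the source made its calls: active means compounds lowering signal whose fitted AC50 is at most ten times the top tested dose; inconclusive means flat fit with moderate inhibition, or poor curve fit; inactive means the rest.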

assay: GFP reporter loss versus dox-driven RFP – NIH3T3 R4 cells, cherry-pick, set 3, dose response (AID 493083); settings: NIH3T3 R4 HSF-1 GFP reporter, heat shock, 48 h; at 19.5 µM (top of the series);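 further: 0% = neutral control wells and -100% = didemnin B positive control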

SMILES	activity change, negative = inhibition
O=C(OC1CN2CCC1CC2)c1cccc(Cl)c1 (stereo unspecified)	inactive: 0.281%
